According to the NIST ThermoML archive (doi:10.1016/j.fluid.2017.04.007):
± gives the expanded uncertainty stated by the source.

Key:
[1] = xn = mol fraction of the nth substance listed; conditions: 101 kPa, Liquid, Vibrating tube method
[2] = Crystal; DTA
[3] = Molar enthalpy of transition or fusion; conditions: Crystal; DSC

CCC[N+](CCC)(CCC)CCC.[Cl-] [tetrapropylammonium chloride] + O
mass density [kg/m3], [1]
Conditions | 298.15 K | 308.15 K | 318.15 K | 328.15 K | 338.15 K | 348.15 K | 358.15 K
x1 = 0.013 | 995.5 ± 0.1 | 991.5 ± 0.1 | 986.9 ± 0.1 | 979.4 ± 0.1 | – | – | –
x1 = 0.0306 | 996.2 ± 0.1 | 991 ± 0.1 | 985.4 ± 0.1 | 979.3 ± 0.1 | 972.6 ± 0.1 | 963.5 ± 0.1 | 941.1 ± 0.2
x1 = 0.0556 | 998.5 ± 0.1 | 991.9 ± 0.1 | 985.1 ± 0.1 | 978.2 ± 0.1 | 971.1 ± 0.1 | 963.9 ± 0.1 | –
x1 = 0.0934 | 997.2 ± 0.1 | 990 ± 0.1 | 982.8 ± 0.1 | 975.5 ± 0.1 | 968.2 ± 0.1 | 960.8 ± 0.1 | 953.3 ± 0.1
x1 = 0.1574 | 990.1 ± 0.1 | 983.3 ± 0.1 | 976.4 ± 0.1 | 969.6 ± 0.1 | 962.6 ± 0.1 | 955.6 ± 0.1 | 948.6 ± 0.1

CCC[N+](CCC)(CCC)CCC.[Cl-] [tetrapropylammonium chloride]
Conditions | Molar enthalpy of transition or fusion [kcal/mol] | Normal melting temperature [°C]
[2] | – | 229.92 ± 5.1
[3] | 15.9 ± 1.05 | –
